Source: patent publication US20110098554A1, “Monitoring of convection enhanced drug delivery” (priority 2004, published 2011)

Key:
[1] = tested on: striatum of normal Sprague-Dawley (SD) rats; experiment: Cytotoxic tissue response to CED by T2-weighted and diffusion-weighted MRI and histology
Experimental: (§1) The resultant solution was infused into the striatum of normal Sprague-Dawley (SD) rats (males, 250-300 grams). T1-weighted MR images were acquired immediately post treatment to assess the extent of convection. Additionally, T2-weighted and diffusion-weighted MR images were acquired 24 hours post treatment to assess the response of the tissue and its correlation to the extent of convection.
(§2) Under full anesthesia, a midline scalp incision was made to identify the bregma. A 1 mm burr hole was made in the right region of the skull, 3 mm anterior and 2 mm lateral to the bregma. A 33-gauge needle attached to a 1000 μl syringe (Gastight; Hamilton) was placed stereotactically 5.5 mm deep into the striatum. The infusion was performed using a BASI syringe pump at a rate of 1 μl/min for a duration ranging from […].
In order to obtain a wide range in volumes of distribution, the infusion times were varied between 17 to 60 minutes. 13 rats were treated with Carboplatin (4 mg/ml, 17 minutes infusion). […]
The volume (in cm^3) of the composition distribution was calculated from the T1-weighted MR images acquired immediately post CED treatment. […] The number of pixels in the ROIs was counted and multiplying by the volume of a single pixel. […]

[2] = CED into rat striatum, convection monitored by T1-weighted MRI of infusates mixed with Gd-DTPA; settings: Gd-DTPA mixed with 0.2% human serum albumin, 17% sucrose or Taxol
Experimental: as §1, §2
The volume (in cm^3) of the composition distribution was calculated from the T1-weighted MR images acquired immediately post CED treatment. Region-of interests (ROIs) were defined over the entire enhancing region in each slice (excluding the ventricles). The number of pixels in the ROIs was counted and multiplying by the volume of a single pixel. Equation 1 was used to calculate ADC maps of the diffusion-weighted MR images.

human serum albumin: non-toxic infusate, pharmaceutical carrier that increases viscosity
tissue toxicity (T2-weighted and diffusion-weighted MRI) ([1]; 24 hours post treatment, 0.2% human serum albumin, 17% sucrose or Taxol): no toxicity
enhancement on T2-weighted and diffusion-weighted MR images at the site of the catheter tip ([1]; efficient prolonged (90 minutes) CED of non-toxic infusates): minor enhancement
convection efficiency (T1-weighted MRI immediately post treatment) [2]: poor convection
